## Binding of CDR-mutated scFvs to a peptide of the spike HR2 region

Data: MIT Lincoln Laboratory AlphaSeq set, Li et al. 2023, doi:10.1038/s41467-023-39022-2, as distributed in FLAb.

The target is the same throughout: PDVDLGDISGINAS, from the HR2 region of SARS-CoV-2 spike.

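This is the validation round: designs drawn from the data on random variants, tested in the same kind of assay. Group labels follow the data file (En: ensemble of fine-tuned language models; HC: hill climbing; Gen: genetic algorithm; Gibbs: Gibbs sampling; a sequence that several methods proposed may carry one label only). The assay is AlphaSeq: two haploid yeast populations carry antibody and antigen on their surface. Mating (16 h, 30 °C) was followed by selection of diploids and sequencing of their barcodes. Scores were corrected for input abundance and mapped to Kd with protein pairs of known affinity run in the same pool. Each pool was mated in six replicate cultures.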

Each scFv is VH, three GGGGS repeats, VL, as in the parent Ab-14, and differs from it in the CDRs of the heavy chain only.
VH: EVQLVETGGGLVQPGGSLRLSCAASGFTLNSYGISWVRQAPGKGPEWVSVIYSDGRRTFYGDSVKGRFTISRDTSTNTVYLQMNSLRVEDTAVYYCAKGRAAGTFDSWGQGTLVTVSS
VL: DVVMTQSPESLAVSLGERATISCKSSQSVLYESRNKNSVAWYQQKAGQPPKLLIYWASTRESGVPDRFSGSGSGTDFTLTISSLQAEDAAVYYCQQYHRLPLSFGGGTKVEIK

Each variant is given by its three heavy chain CDRs, as the data file delimits them; those of the parent are GFTLNSYGIS, VIYSDGRRTFYGDSVK, GRAAGTFDS. Variants here have more than six changes. Numbers give log10(Kd / nM), so 0 is 1 nM and 3 is 1 µM. Smaller is tighter. Replicates are averaged; those with no signal do not enter the mean. Where no diploid with the target was found in any replicate, the entry reads "no signal": below detection, most likely a poor binder, though not proof of it. The range of this assay differs from that of the first round, and the authors advise against merging the two.

The variant GFNLNEYGIS, VIYADGMRSFYSDSVK, GEAAGTFDV [En_HC] gave -0.35 (6 of 6 replicates).
The variant GFDLGEYGIS, VIYADGRRKGYSDAVK, GINVIGKTV [En_Gibbs] gave no signal (0 of 6 replicates).
The variant GFDLNEYGIS, VIYADGVRTAYTDSVK, GNQAGTFDL [En_Gen] gave 0.41 (6 of 6 replicates).
The variant GFNLDEYGIS, VIYADGRRTFYADSVK, GQVAGTFDS [En_HC] gave 0.08 (6 of 6 replicates).
The variant GFNLDEYGIS, VIYADGRRKFYADSVK, GNTAGTFDS [En_HC] gave -0.63 (6 of 6 replicates).
The variant GFDLNEYGIS, VIYADGRRTAYVDSVK, GEAAGTFDL [En_HC] gave no signal (0 of 6 replicates).
The variant GFDLNEYGIS, VIYADGQRTAYADDVK, GEVAGTFDV [En_Gen] gave -0.51 (6 of 6 replicates).
The variant GFDLDEYGIS, VIYADGVRTFYADSVK, GENAGTFDI [En_Gen] gave -0.25 (6 of 6 replicates).
The variant GFDLDEYGIS, VIYADGMRQAYADSVK, GNVAGTFDV [En_Gen] gave -0.39 (6 of 6 replicates).
The variant GFGLDEYGIS, VIYADGRRTFYADSVK, GEVAGTFDM [En_HC] gave -0.47 (6 of 6 replicates).
The variant GQQLDEYGIH, VIYADGVRTSYTNQVK, GEHAGTFMQ [En_Gibbs] gave no signal (0 of 6 replicates).
The variant GFDLNEYGIS, VIYADGQRTAYADSVK, GANAGTFDI [En_Gen] gave -0.36 (6 of 6 replicates).
The variant GYDLVEYGIS, VIYADGQRTMYADTVK, GNHGGIIDV [En_Gibbs] gave no signal (0 of 6 replicates).
The variant GFDLDEYGIS, VIYADGKRTVYADSVK, GENAGTFDV [En_Gen] gave 0.10 (6 of 6 replicates).
The variant GFDLNEYGIS, VIYADGRRTAYIDSVK, GEVAGTFDV [En_Gen] gave 0.18 (6 of 6 replicates).
The variant GFDVDEYGIS, VIYADGTRVAYQDSVK, GYINVVSIV [En_Gibbs] gave no signal (0 of 6 replicates).
The variant GFDLDEYGIS, VIYADGKRTAYADNVK, GNVAGTFDV [En_Gen] gave -0.36 (6 of 6 replicates).
The variant GFDLNEYGIS, VIYADGMRTYYSDSVK, GNVAGTFDL [En_Gen] gave -1.14 (6 of 6 replicates).
The variant GFSLDEYGIS, VIYADGVRQAYQDSVK, GQWHGTMMY [En_Gibbs] gave no signal (0 of 6 replicates).
The variant GFDLNEYGIS, VIYADGSRTFYSDSVK, GQNAGTFDV [En_HC] gave -0.27 (6 of 6 replicates).
The variant KFDIEHYGIS, VIYADGKRTAYSNAVK, GWQGGTFNT [En_Gibbs] gave 0.68 (6 of 6 replicates).
The variant GFDLNEYGIS, VIYADGRRTAYIDSVK, GNQAGTFDM [En_HC] gave -0.54 (6 of 6 replicates).
The variant GFDLDQYGIS, VIYADGMRAGYADSVK, GHWGGKFLI [En_Gibbs] gave no signal (0 of 6 replicates).
The variant GFDLNEYGIS, VIYADGKRTAYADNVK, GNVAGTFDI [En_Gen] gave -0.12 (6 of 6 replicates).
The variant GFDLNEYGVS, VIYADGMRSSYQDKVK, GSNVSLFDV [En_Gibbs] gave no signal (0 of 6 replicates).
The variant GFDLNEYGIS, VIYADGQRTAYVDSVK, GNNAGTFDV [En_Gen] gave -0.76 (6 of 6 replicates).
The variant EFDLQEYGIS, VIYADGQRVAYKDNVK, GNGGVVFIA [En_Gibbs] gave no signal (0 of 6 replicates).
The variant GKTLDEYGIS, VIYADGMRTQYIDSVK, GGIDGWNMI [En_Gibbs] gave no signal (0 of 6 replicates).
The variant GFDLNEYGIS, VIYADGVRTAYADNVK, GQTAGTFDV [En_Gen] gave -0.19 (6 of 6 replicates).
The variant GFDLNEYGIS, VIYADGKRTFYTDSVK, GQNAGTFDV [En_HC] gave -0.50 (6 of 6 replicates).
The variant GFDLNEYGIS, VIYADGKRTAYADSVK, GTVAGTFDL [En_Gen] gave -0.42 (6 of 6 replicates).
The variant GFDLNEYGIS, VIYADGRRTFYSDSVK, GAVAGTFDL [En_HC] gave -0.53 (6 of 6 replicates).
The variant GFDIEEYGIS, VIYADGMRTVYSDSFK, SGRTVNIDV [En_Gibbs] gave no signal (0 of 6 replicates).
The variant GFDFQEYGIS, VIYADGLRTAYANSVK, GQSNALTTV [En_Gibbs] gave 2.17 (1 of 6 replicates).
The variant GFDLNEYGIS, VIYADGQRTFYVDSVK, GQVAGTFDV [En_HC] gave -0.94 (6 of 6 replicates).
The variant GFDLDEYGIS, VIYADGKRTAYADDVK, GNVAGTFDQ [En_Gen] gave -0.75 (6 of 6 replicates).
The variant GFDLDEYGIS, VIYADGMRTAYSDSVK, GENAGTFDL [En_Gen] gave -0.73 (6 of 6 replicates).
The variant GFDLNEYGIS, VIYADGVRTAYQDSVK, GNVAGTFDI [En_Gen] gave -0.20 (6 of 6 replicates).
The variant GFDLMEYGIS, VIYADGVRTAYQDDVK, GQEAGFLYT [En_Gibbs] gave 1.66 (1 of 6 replicates).
The variant GDSLNEYGIS, VIYADGRRSVYTDNVK, GHAGGIFMS [En_Gibbs] gave no signal (0 of 6 replicates).
The variant GFDLNEYGIS, VIYADGRRTAYTDSVK, GANAGTFDS [En_HC] gave -0.77 (6 of 6 replicates).
The variant GFDLNEYGIS, VIYADGMRTFYTDSVK, GEVAGTFDQ [En_HC] gave -0.80 (6 of 6 replicates).
The variant GFDLNEYGIS, VIYADGMRTAYIDSVK, GNTAGTFDL [En_Gen] gave -0.51 (6 of 6 replicates).
The variant GFDLNEYGIS, VIYADGQRTAYADSVK, GHAAGTFDS [En_HC] gave -0.35 (6 of 6 replicates).
The variant GFDLDEYGIS, VIYADGRRTFYQDSVK, GNVAGTFDT [En_HC] gave 0.02 (6 of 6 replicates).
The variant GFDLNEYGIS, VIYADGRRTQYIDSVK, GETAGTFDL [En_HC] gave -0.40 (6 of 6 replicates).

Picked from the list: the 2 lowest averages where every replicate gave a value.

| CDR-H1 | CDR-H2 | CDR-H3 | group | mean log10 Kd (nM) | seen in |
|---|---|---|---|---|---|
| GFDLNEYGIS | VIYADGMRTYYSDSVK | GNVAGTFDL | En_Gen | -1.14 | 6 of 6 |
| GFDLNEYGIS | VIYADGQRTFYVDSVK | GQVAGTFDV | En_HC | -0.94 | 6 of 6 |

The authors' rule: three or more of the six replicates give a measured affinity, fewer mean a poor binder. Empty control strains, which show no peptide, gave a signal in 1% of pairings with all heavy chain designs; the median was 2.08 and 95% of these signals were weaker than 0.84. No background was subtracted. Of ten entries with the parent sequence, four were seen in most replicates (averages 0.34 to 2.37), three in one and three in none, so single entries are noisy.